According to ChEMBL document CHEMBL1154694, “Discovery of a 2,4-diamino-7-aminoalkoxyquinazoline as a potent and selective inhibitor of histone lysine methyltransferase G9a” (J Med Chem, 2009):

How the values were obtained:
[1] = biological target: T1, Histone-lysine N-methyltransferase EHMT2 (Homo sapiens, UniProt Q96KQ7); test: Inhibition of G9a by Alpha screen assay
T1 sequence (Q96KQ7 whole entry): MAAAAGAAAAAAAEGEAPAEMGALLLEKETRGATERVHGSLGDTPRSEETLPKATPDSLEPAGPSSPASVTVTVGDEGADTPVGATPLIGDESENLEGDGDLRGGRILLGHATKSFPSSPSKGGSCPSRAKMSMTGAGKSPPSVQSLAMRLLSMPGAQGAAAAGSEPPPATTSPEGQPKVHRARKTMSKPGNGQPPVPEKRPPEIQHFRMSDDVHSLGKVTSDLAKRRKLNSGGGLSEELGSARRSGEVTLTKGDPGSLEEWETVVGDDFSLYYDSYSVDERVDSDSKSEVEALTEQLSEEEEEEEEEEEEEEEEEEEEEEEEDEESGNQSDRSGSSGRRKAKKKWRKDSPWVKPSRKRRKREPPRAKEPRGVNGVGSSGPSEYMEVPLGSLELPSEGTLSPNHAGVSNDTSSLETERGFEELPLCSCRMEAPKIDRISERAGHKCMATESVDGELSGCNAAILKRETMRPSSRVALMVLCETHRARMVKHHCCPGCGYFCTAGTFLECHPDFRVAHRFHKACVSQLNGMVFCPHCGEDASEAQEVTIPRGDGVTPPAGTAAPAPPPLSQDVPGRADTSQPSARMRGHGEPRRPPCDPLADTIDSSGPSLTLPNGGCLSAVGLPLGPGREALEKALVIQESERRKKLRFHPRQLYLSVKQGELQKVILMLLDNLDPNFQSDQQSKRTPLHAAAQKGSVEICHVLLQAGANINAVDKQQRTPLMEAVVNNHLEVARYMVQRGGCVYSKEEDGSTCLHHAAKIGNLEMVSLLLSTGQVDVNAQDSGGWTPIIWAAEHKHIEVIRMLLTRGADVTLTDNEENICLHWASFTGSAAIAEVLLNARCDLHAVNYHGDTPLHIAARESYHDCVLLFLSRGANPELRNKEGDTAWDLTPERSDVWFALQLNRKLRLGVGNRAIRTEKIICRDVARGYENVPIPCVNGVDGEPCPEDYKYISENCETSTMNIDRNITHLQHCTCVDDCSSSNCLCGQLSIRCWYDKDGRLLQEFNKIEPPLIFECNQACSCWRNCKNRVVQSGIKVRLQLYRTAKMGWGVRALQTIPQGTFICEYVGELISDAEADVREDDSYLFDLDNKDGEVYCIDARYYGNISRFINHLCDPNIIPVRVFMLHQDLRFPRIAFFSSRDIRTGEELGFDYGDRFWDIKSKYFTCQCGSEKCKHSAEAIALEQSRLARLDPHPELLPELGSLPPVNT

[2] = biological target: T1, Histone-lysine N-methyltransferase EHMT2

| IC50 [1] [nM] | IC50 [2] [nM] | SMILES |
| --- | --- | --- |
| 200 | 680 | COc1cc2nc(N3CCN(C)CC3)nc(NC3CCN(C)CC3)c2cc1OC |
| 230 |  | COc1cc2nc(N3CCCN(C)CC3)nc(NC3CCN(C)CC3)c2cc1OC |
